Measured values as given in ChEMBL document CHEMBL1157642, “2-Amino-5-benzoyl-4-phenylthiazoles: Development of potent and selective adenosine A1 receptor antagonists” (Bioorg Med Chem, 2010).

By UniProt entry, the sequences of proteins in these tests, tags left out.
UniProt P30543, whole entry: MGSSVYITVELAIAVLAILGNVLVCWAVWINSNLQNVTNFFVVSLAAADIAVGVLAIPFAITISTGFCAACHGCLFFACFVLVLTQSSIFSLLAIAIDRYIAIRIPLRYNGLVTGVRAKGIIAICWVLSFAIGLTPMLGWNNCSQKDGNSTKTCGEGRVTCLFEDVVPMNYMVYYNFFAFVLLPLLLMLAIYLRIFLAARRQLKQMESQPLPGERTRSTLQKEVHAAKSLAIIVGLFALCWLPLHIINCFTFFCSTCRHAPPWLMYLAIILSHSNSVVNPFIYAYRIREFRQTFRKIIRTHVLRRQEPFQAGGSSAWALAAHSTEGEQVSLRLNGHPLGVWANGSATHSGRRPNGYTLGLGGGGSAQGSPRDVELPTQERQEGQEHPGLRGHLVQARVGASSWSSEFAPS
UniProt P25099, whole entry: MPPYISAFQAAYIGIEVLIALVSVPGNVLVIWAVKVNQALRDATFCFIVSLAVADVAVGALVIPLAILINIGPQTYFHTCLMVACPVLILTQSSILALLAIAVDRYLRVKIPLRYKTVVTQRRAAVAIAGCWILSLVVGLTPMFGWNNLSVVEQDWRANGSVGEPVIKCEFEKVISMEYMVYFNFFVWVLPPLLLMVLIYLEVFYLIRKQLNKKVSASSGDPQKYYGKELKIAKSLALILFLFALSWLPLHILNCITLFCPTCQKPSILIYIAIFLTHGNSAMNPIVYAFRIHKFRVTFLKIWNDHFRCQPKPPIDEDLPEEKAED

What was measured:
Adenosine receptor A2a = Adenosine receptor A2a (Rattus norvegicus, UniProt P30543)
Adenosine receptor A1 = Adenosine receptor A1 (Rattus norvegicus, UniProt P25099)

Compound: COc1ccc(C(=O)c2sc(Nc3ccccc3)nc2-c2ccccc2)cc1
- Ki (Adenosine receptor A2a): > 1 µM
- Ki (Adenosine receptor A1): > 1 µM
